## Binding of CDR-mutated scFvs to a peptide of the spike HR2 region

All variants were tested on one target, the spike HR2 peptide PDVDLGDISGINAS (SARS-CoV-2).

Ab-14 is the parent antibody, in scFv form: VH, then the linker GGGGSGGGGSGGGGS, then VL. The heavy chain is unchanged in all variants.
VH: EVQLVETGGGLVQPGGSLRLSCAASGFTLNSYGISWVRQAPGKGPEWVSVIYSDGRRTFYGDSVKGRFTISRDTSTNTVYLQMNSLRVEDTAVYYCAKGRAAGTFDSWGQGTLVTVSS
VL: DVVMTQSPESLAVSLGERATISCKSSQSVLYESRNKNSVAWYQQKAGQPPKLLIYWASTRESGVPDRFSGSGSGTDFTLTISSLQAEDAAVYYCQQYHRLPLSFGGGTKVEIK

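The parent was found by panning a naive human phage display library on the peptide. The variants were designed computationally from a first round of random CDR variants and then made and measured. Several design methods are mixed in this list. The scFvs were displayed on barcoded MATa yeast, the peptide on MATalpha yeast. After mating in shaken culture at 30 °C for 16 h, diploids were selected and their barcode pairs sequenced. Each replicate has its own calibration line, from reference interactions of the BCL2 family. Each pool was mated in six replicate cultures.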

Each variant is given by its three light chain CDRs, as the data file delimits them; those of the parent are KSSQSVLYESRNKNSVA, WASTRES, QQYHRLPLS.
This list holds designs with at most six substitutions.
Kd is apparent (estimated from mating counts) and averaged on the log scale over replicates with a signal. Smaller is tighter.
A pair that was not seen in any replicate is written "nd"; this usually means weak binding, but a binder can also be missed.
Nonspecific signal, from three strains lacking the peptide, appeared in 4% of pairings of all light chain designs, centred on 430 nM (5% of these signals below 38 nM); values are not corrected for it. For each scFv, signals with the empty controls are counted beside the result.

Variant KSLQSVNYSSRNKNSVA | WASTRES | QQYHRLPLS gave 410 nM (4 of 6 replicates; controls 0 of 18). For KLSQSHLYESRNKNAVA | NASTRES | QQYHRLPLS, the assay gave 950 pM (6 of 6 replicates; controls 2 of 18). Variant KMSQSVLMEWRNKNSVA | DASTRES | QQYHRLPLS showed 530 pM (6 of 6 replicates; controls 2 of 18). Variant KSSQSVSYESRNKNSVA | EASTRES | QQYHRLPLS gave 1.6 nM (6 of 6 replicates; controls 1 of 18). For KLSQSVEYESRMKNSVA | NASQRES | QQYHRLPLS, the assay gave 2.2 nM (6 of 6 replicates; controls 1 of 18). Variant HSSPSWLYESRNKNSVA | NASTRES | QQYHRLPLS showed 400 pM (6 of 6 replicates; controls 1 of 18). For KSSQSVLYESGNKNSVA | WASTRES | QQYNRLPLS, the assay gave 12 nM (6 of 6 replicates; controls 1 of 18). Variant KSSQSVLYESRNKNSVA | EASQRES | QQYHRLPLS showed 14 nM (6 of 6 replicates; controls 1 of 18).

With KSSQSVLYEQLNKNSVA | TASIRES | TQYHRLPLS the result was nd (0 of 6 replicates; controls 0 of 18). With KLRQSNLYESRNPNSVA | AASTRES | QQYHRLPLS the result was 700 pM (6 of 6 replicates; controls 2 of 18). With KHEQGDLYESRNKNSVA | GASVRES | QQYHRLPLS the result was 590 pM (6 of 6 replicates; controls 0 of 18). Variant KLSQSVEYESRNKNSVA | NASTREV | QQYHRLPLS gave 1.6 nM (6 of 6 replicates; controls 3 of 18). Variant KSSQSVLYESRNKNSVA | WATTRES | QQYHNLPLS showed 12 nM (1 of 6 replicates; controls 0 of 18). Variant KSSDSVLYESRNKNSVA | EASTRES | QQYHWLPLS gave 20 nM (6 of 6 replicates; controls 2 of 18). Variant KSSQSGLYESRNKNSVA | WASTRAS | QQYDRLPLS gave 15 nM (6 of 6 replicates; controls 1 of 18). Variant KSSISYLYESRNKNSVA | AASTREV | QQYHRLPLS showed 810 pM (6 of 6 replicates; controls 1 of 18).

Variant KVSQSVLYEERNKNSVA | NASTRLS | QQYHRLPLS gave 1.3 nM (6 of 6 replicates; controls 0 of 18). Variant KSGGQVLYESRNKNSVA | GASTRES | QQYHRLPLS showed 2.4 nM (6 of 6 replicates; controls 0 of 18). For KSSQSVLMQSRNKNSVA | DASTRES | QQYHRLPLS, the assay gave nd (0 of 6 replicates; controls 0 of 18). For KVSQSWLYESRNKNSVA | NASTREV | QQYHRLPLS, the assay gave 500 pM (6 of 6 replicates; controls 0 of 18). For KSSQSLLYESRNKVSVA | KASTRES | QQYHRLPLS, the assay gave 110 nM (6 of 6 replicates; controls 0 of 18). With KSSQSVLYESRNQNSVA | WASERES | QQYHRLPLS the result was 20 nM (6 of 6 replicates; controls 1 of 18). Variant KLEQSVLYEERNKNSVA | NASTRES | QQYHRLPLS gave 670 pM (6 of 6 replicates; controls 2 of 18). With KLEWSELYESRNKNSVA | NASTRES | QQYHRLPLS the result was 3.8 nM (6 of 6 replicates; controls 1 of 18).

Variant YFSQSVLYESRNKNSVA | RASTRES | QQYFRLPLS gave 5.2 nM (6 of 6 replicates; controls 0 of 18). For KSSQNVLTESRNTNSVA | NADTRES | QQYERLPLS, the assay gave 390 pM (6 of 6 replicates; controls 0 of 18). With HLSQSVLYESRNKNSVA | NASTREV | QQYHRLPLS the result was 710 pM (6 of 6 replicates; controls 1 of 18). For KSSQNVLYESRNKNSVA | WLSTREV | QQYHRLPLS, the assay gave 70 nM (1 of 6 replicates; controls 1 of 18). Variant KQSQEVLYESRNKNSVA | DASTRES | QQYHRLPLS gave 730 pM (6 of 6 replicates; controls 1 of 18). With KFSQSVLYESTTANSVA | NASTRES | QQYHRLPLS the result was 1.4 nM (6 of 6 replicates; controls 1 of 18). Variant KSSKSVLYESRNKNSVA | WASTRER | QQYHRLPLS showed nd (0 of 6 replicates; controls 0 of 18). Variant KLRQSTLYESRNKNSVA | RASTRLS | QQYHRLPLS gave 360 nM (6 of 6 replicates; controls 0 of 18).

Variant KSSQSVLYESRDKNSVA | QASTRES | QQYHILPLS showed 16 nM (6 of 6 replicates; controls 0 of 18). For KSSQSVLSESRNKNSVA | DASTRES | QQYHRLPLS, the assay gave 1.1 nM (6 of 6 replicates; controls 3 of 18). With KASQSWLYESRNKNSVA | GASTREN | QQYHRLPLS the result was 190 pM (6 of 6 replicates; controls 0 of 18). Variant KVSQSWLYESRNKNSVA | EASTRQS | QQYHRLPLS gave 450 pM (6 of 6 replicates; controls 0 of 18). For KLEQSVDYESRNKNSVA | NASTRES | QQYHRLPLS, the assay gave 4.5 nM (6 of 6 replicates; controls 1 of 18). For KSSQMVLYESRNKYSVA | WASTRES | QQYHRLPLS, the assay gave nd (0 of 6 replicates; controls 0 of 18). Variant KSSQSVLYESRNANSVA | RASTRES | QQYHRLPLS gave 550 pM (6 of 6 replicates; controls 1 of 18). For KSSQSVLYESRNKHSVA | WASTRES | QDYHRLPLS, the assay gave 7.6 nM (6 of 6 replicates; controls 1 of 18).

With KVSQSVFYEDRNKNSVA | NASTRES | QQYHRLPLS the result was 1.9 nM (6 of 6 replicates; controls 3 of 18). With KLSQSVLYESTNSNSVA | DASTRYS | QQYHRLPLS the result was 1.6 nM (6 of 6 replicates; controls 1 of 18). Variant KSSQSHLYESRNKNSVA | WASTRES | QQIHRLPLS gave 190 nM (1 of 6 replicates; controls 0 of 18). Variant KLSQSVLYESRNKNSVA | NASTRLD | QQYHRLPLS showed 710 pM (6 of 6 replicates; controls 1 of 18). Variant KSSQSFLYESRNKNSVA | GASTRES | QQYHRLPLH showed 2.6 nM (6 of 6 replicates; controls 1 of 18). Variant KLMQSTLYESRNQNSVA | NASTRES | QQYHRLPLS gave 750 pM (6 of 6 replicates; controls 1 of 18). Variant KFSQSVLYDSHNKNSVA | WASTRES | QQYHRLPLS showed 2.6 nM (6 of 6 replicates; controls 1 of 18). Variant KSSSSVLYESMNKNSVA | SASTRES | QQYHRLPLS gave 2.1 nM (6 of 6 replicates; controls 1 of 18).

Top 4 of the variants detected in all replicates, tightest first:

KASQSWLYESRNKNSVA | GASTREN | QQYHRLPLS: 190 pM (6 of 6 replicates; controls 0 of 18).
KSSQNVLTESRNTNSVA | NADTRES | QQYERLPLS: 390 pM (6 of 6 replicates; controls 0 of 18).
HSSPSWLYESRNKNSVA | NASTRES | QQYHRLPLS: 400 pM (6 of 6 replicates; controls 1 of 18).
KVSQSWLYESRNKNSVA | EASTRQS | QQYHRLPLS: 450 pM (6 of 6 replicates; controls 0 of 18).

The authors' rule: three or more of the six replicates give a measured affinity, fewer mean a poor binder.
The parent sequence was in this pool as ten entries: three were never detected, three once, and four in most replicates, with averages from 2.2 nM to 240 nM.
Values of this round are not directly comparable with the first-round values of the same sequences.

The measurements come from Li et al. 2023 (doi:10.1038/s41467-023-39022-2) through the FLAb antibody collection.